{
  "sequences": {"note": "Amino acid sequences for entries named in this document (tags omitted).", "UniProt P14416, whole entry": "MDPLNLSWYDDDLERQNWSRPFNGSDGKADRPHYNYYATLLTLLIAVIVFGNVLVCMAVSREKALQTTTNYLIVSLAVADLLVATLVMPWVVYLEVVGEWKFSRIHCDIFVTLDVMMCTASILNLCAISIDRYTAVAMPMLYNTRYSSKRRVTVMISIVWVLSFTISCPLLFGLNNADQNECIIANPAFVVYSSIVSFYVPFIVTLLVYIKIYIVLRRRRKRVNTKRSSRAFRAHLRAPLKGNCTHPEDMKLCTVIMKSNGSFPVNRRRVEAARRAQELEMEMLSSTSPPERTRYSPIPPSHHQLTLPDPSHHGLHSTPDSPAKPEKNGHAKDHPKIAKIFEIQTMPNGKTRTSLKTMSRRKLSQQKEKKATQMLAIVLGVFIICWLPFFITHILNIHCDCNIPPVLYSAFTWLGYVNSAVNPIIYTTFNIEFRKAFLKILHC"},
  "source": "ChEMBL document CHEMBL2163335",
  "about": "“Structure-functional selectivity relationship studies of β-arrestin-biased dopamine D₂ receptor agonists” (J Med Chem, 2012)",
  "note": "pEC50, pKi: −log10 of the molar value.",
  "data": [
    {"target": "T1, D(2) dopamine receptor (Homo sapiens, UniProt P14416)", "assay": "not given", "type": "functional, cell-based, HTLA", "conditions": "not given", "values": [
      {"smiles": "Clc1cccc(N2CCCN(CCCCOc3ccc4scnc4c3)CC2)c1Cl", "pEC50": 7.60},
      {"smiles": "O=C1CCc2ccc(OCCCCN3CCN(c4cccc(Cl)c4Cl)CC3)nc2N1", "pEC50": 8.49},
      {"smiles": "O=c1[nH]c2ccc(OCCCCN3CCC(c4cccc(Cl)c4Cl)CC3)cc2[nH]1", "pEC50": 7.70}
    ]},
    {"target": "T1, D(2) dopamine receptor", "assay": "biochemical", "type": "cell-based, CHO", "conditions": "not given", "values": [
      {"smiles": "O=C1CCc2ccc(OCCCCN3CCN(c4cccc(Cl)c4Cl)CC3)nc2N1", "pKi": 8.47}
    ]},
    {"target": "T1, D(2) dopamine receptor", "assay": "not given", "conditions": "HTLA, 6 uM", "units": {"Emax": "%"}, "values": [
      {"smiles": "Clc1cccc(N2CCN(CCCCOc3ccc4scnc4c3)CC2)c1Cl", "Emax": 63},
      {"smiles": "O=c1[nH]c2ccc(OCCCCN3CCN(c4cccc(Cl)c4Cl)CC3)cc2[nH]1", "Emax": 65},
      {"smiles": "O=C1CCc2ccc(Oc3cccc(CN4CCN(c5cccc(Cl)c5Cl)CC4)c3)cc2N1", "Emax": 57},
      {"smiles": "O=C1CCc2ccc(Oc3ccc(CN4CCN(c5cccc(Cl)c5Cl)CC4)cc3)cc2N1", "Emax": 48},
      {"smiles": "Clc1cccc(N2CCN(CCCCOc3ccc4cn[nH]c4c3)CC2)c1Cl", "Emax": 61},
      {"smiles": "O=C1NCCc2ccc(OCCCCN3CCN(c4cccc(Cl)c4Cl)CC3)cc21", "Emax": 46}
    ]},
    {"target": "T1, D(2) dopamine receptor", "assay": "not given", "conditions": "HTLA, at 6 µM", "units": {"Emax": "%"}, "values": [
      {"smiles": "Clc1cccc(N2CCN(CCCOc3ccc4cn[nH]c4c3)CC2)c1Cl", "Emax": 78},
      {"smiles": "O=C1CCc2ccc(OCCCCN3CCCN(c4cccc(Cl)c4Cl)CC3)nc2N1", "Emax": 47},
      {"smiles": "O=C1CCc2ccc(OCCCCN3CCN(c4cccc(Cl)c4Cl)CC3)nc2N1", "Emax": 73},
      {"smiles": "Clc1cccc(N2CCN(CCCOc3ccc4scnc4c3)CC2)c1Cl", "Emax": 88},
      {"smiles": "O=C1NCCc2ccc(OCCCN3CCN(c4cccc(Cl)c4Cl)CC3)cc21", "Emax": 84},
      {"smiles": "O=C1NCCc2ccc(OCCCN3CCCN(c4cccc(Cl)c4Cl)CC3)cc21", "Emax": 41},
      {"smiles": "Clc1cccc(C2CCN(CCCOc3ccc4scnc4c3)CC2)c1Cl", "Emax": 97}
    ]}
  ]
}
